This data set in a line: Example 3: blood clearance of 14C-labeled plasmid DNA after IV administration.

Turning to “N^4-(5-(trilactosyllysyllysyl) amidopentyl spermine triacetate [trilactosyl spermine]”, the “uptake time, extrapolation of the clearance curve” value (DNA monocomplex) is recorded as “a couple of minutes”. In addition, the “blood clearance of DNA” value (DNA monocomplex with the named spermine, charge ratio 0.8) is given as “fastest clearance”.

The record behind these values is US20090163436A1, “METHODS FOR DELIVERY OF NUCLEIC ACIDS” (Nucleonics, Inc., priority 2002, published 2009).
